This is a sample that favours compounds with a hit; in the whole collection about 1.2% have one here.
Glyco luc inh = N-linked glycosylation inhibition; D54 ERlucT glycosylation luciferase reporter, 24 h; percent of 100 nM tunicamycin response; reporter increase, % at 12.5 µM; 360,000 tested, 0.23% active; AID 588692;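 active = mean luciferase reporter signal, scaled so untreated is 0 and the glycosylation-blocking control 100, at or above a set limit in every replicate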;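 note: luciferase carries N-glycosylation sites so blocking glycosylation raises the light; 0% = median of neutral control wells and 100% = median of 100 nM tunicamycin wells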
Cneo AK release = causes C. neoformans cell lysis. adenylate kinase release luminescence, 4 h; normalised: neutral wells 0, clomiphene wells 100. lysis activity, % at 15 µM. 360,000 tested, 0.2% active;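 active = mean lysis activity across replicates of at least 80%, whatever share of replicates individually reach that level; inactive = mean lysis activity below 80%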
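read-out = cell lysis signal | test system = log-phase Cryptococcus neoformans yeast cells | input = cells at 5 × 10^6 per mL | medium = fresh YPD growth medium | signal = luminescent adenylate kinase detection reagent | timing = 4 h at 37 °C static, read 1 h later | dosing = single dose | controls = Clomiphene as positive lysis control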
miR-122 sensor = miR-122 inhibition in Huh7 cells; AID 602342; Huh7 miR-122 Renilla luciferase sensor, 48 h; neutral wells = 0, positive control = 100; 340,000 tested, 0.3% active; activation (reporter increase), % at 12.5 µM;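 active = mean replicate activation score at least 90 and every replicate individually at or above 90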;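 note: higher luciferase means less miR-122 activity so hits act as miR-122 inhibitors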
Yeast UUG start = modulators of yeast start codon fidelity, primary screen, whole organism, S. cerevisiae, single point, plate reader; S. cerevisiae UUG-firefly luciferase reporter, luminescence/redox ratio; activity score, % at 18.7 µM; actives 0.13% (n = 350,000); AID 602363, 2012;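 active = replicate mean at a twofold rise or more, about +100% in these data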;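 also: firefly luciferase made from a UUG start codon reports start codon fidelity; reporter light over untreated wells divided by growth signal over untreated wells; some hits fall short of that in this replicate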
Statin myotox sup = suppressors of simvastatin-induced myotoxicity in C2C12 myotubes; ATP luminescence, 48 h; scaled: DMSO 0, geranylgeraniol control 100; 330,000 tested, 0.78% active; rescue of ATP level, % at 7.49 µM; AID 602340;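 active = mean ATP rescue above about 67%, or every replicate alone reaching that limit, limit read from the data, passing the limit was not always enough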;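 note: myotubes were challenged with 10 µM simvastatin during compound exposure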
The depositor's hits bear a star; . = not tested or not shown; [ ] = another dose, or the depositor's remark.

cpd	structure	Yeast UUG start	miR-122 sensor	Statin myotox sup	Cneo AK release	Glyco luc inh
1	C=CCn1c(O)c(C(C)=NCCCO)c(=O)[nH]c1=O	-4.0	-0.8	108.4*	2.3	2.6
2	Cn1c(=O)cc(OCCCC(=O)N2CCC3(CC2)OCCO3)c2ccccc21	2.3	-5.3	.	-2.2	.
3	Cn1cc(CCC(=O)N2CCC3(CC2)OCCO3)c2ccccc21	-10.7	-3.5	111.7*	0.6	-0.5
4	C[C@H]1C[C@@H](C)C(=O)[C@@H]([C@H](O)CC2CC(=O)NC(=O)C2)C1	-3.1	-19.6	170.8*	12.7	-23.0
5	CC12CCC3C(CCC4(O)CC(O)CCC34C=O)C1(O)CCC2C1=CC(=O)OC1 (stereo not drawn)	.	96.1*	-6.9	.	-16.2
6	COc1ccccc1C1=NCc2nnc(C)n2-c2ccc(Cl)cc21	.	.	.	.	2.4
7	COc1ccc(C2=NCc3nnc(C)n3-c3ccc(Cl)cc32)cc1Cl	-7.3	-5.5	98.1*	2.7	12.5
8	CNC(=O)c1cccn(Cc2ccc(C(F)(F)F)cc2)c1=O	.	-4.4	13.3	.	34.4*
9	CNC(=O)c1cccn(Cc2cc(C(F)(F)F)cc(C(F)(F)F)c2)c1=O	.	.	.	.	19.4
10	Cc1ccccc1CS(=O)(=O)Cc1ccc(C(=O)N2CCC3(CC2)OCCO3)o1	.	.	.	.	-2.2
11	COc1ccc(S(=O)(=O)Cc2ccc(C(=O)N3CCC4(CC3)OCCO4)o2)cc1	-0.5	1.5	112.5*	2.7	0.2
12	C=C(C)[C@@]12OC3(c4ccccc4)O[C@@H]1C1[C@@H]4O[C@]4(CO)[C@@H](O)[C@]4(O)C(=O)C(C)=C[C@H]4[C@@]1(O3)[C@H](C)[C@H]2OC(=O)/C=C/C=C/c1ccccc1 (stereo partly drawn)	5.7	-3.9	1.6	0.1	52.8*

Other structures.
cpd	structure	Yeast UUG start	miR-122 sensor	Statin myotox sup	Cneo AK release	Glyco luc inh
13	CCOC(=O)C1=C(C)OC(N)=C(C(=O)OCC)[C@@]12C(=O)N(CC(N)=O)c1ccccc12	1.1	1.2	98.5*	7.6	2.4
14	C=CCOC(=O)C1=C(C)OC(N)=C(C(=O)OCC)C12C(=O)N(CC(N)=O)c1ccccc12 (stereo not drawn)	2.9	-3.1	3.2	0.9	-1.1
15	COC(=O)[C@H]1[C@H](CO)[C@H]2Cn3c(ccc(-c4cccc(OC)c4)c3=O)[C@@H]1N2CC1CC1	.	.	10.1	-2.6	.
16	N=c1n(CCO)c2ccccc2n1Cc1ccccc1	-11.2	-7.5	85.8*	-5.1	0.8
17	Cc1cc(C)c(NC2=NCCCS2)c(C)c1	-3.3	2.9	81.7*	3.5	-4.0
18	CCCC#Cc1ccc([C@H]2[C@H]3CN(C(=O)Cc4ccccn4)CCCCN3[C@H]2CO)cc1	2.8	0.0[16.7 µM]	.	0.3	.
19	CN1CN(c2ccccc2)C2(CCN(CCCSc3ccccc3NC(=O)/C=C/c3ccccc3)CC2)C1=O	.	.	.	.	30.4*
20	CN1CCC(N(C)c2nc(-c3ccc([N+](=O)[O-])cc3)nc3ccccc23)CC1	.	-25.1	.	.	1.7
21	CN(CC1COc2ccccc2O1)c1nc(-c2cccnc2)nc2ccccc12 (stereo not drawn)	-10.1	14.8	107.7*	12.6	-0.7
22	COC12CCC3(CC1C(C)(O)C(C)(C)C)[C@H]1Cc4ccc(O)c5c4[C@@]3(CCN1CC1CC1)C2O5 (stereo partly drawn)	12.9	-8.7	11.5	3.6	58.9*
23	COc1ccc(CCNC2CCCCC2)cc1	.	.	.	.	0.8
24	COc1ccc(C[C@H]2NC[C@H](O)[C@H]2OC(C)=O)cc1	-18.4	-12.9	78.5*	-6.0	-17.2

Copied from the list:
`CN1CCC(N(C)c2nc(-c3ccc([N+](=O)[O-])cc3)nc3ccccc23)CC1` in Glyco luc inh has 1.7
`COc1ccc(C[C@H]2NC[C@H](O)[C@H]2OC(C)=O)cc1` in Yeast UUG start has -18.4

Later entries:
cpd	structure	Yeast UUG start	miR-122 sensor	Statin myotox sup	Cneo AK release	Glyco luc inh
25	CN(C)C(=O)[C@@H]1[C@@H](CO)[C@@H]2Cn3c(cccc3=O)[C@H]1N2CC1CC1	-17.4	-0.6[16.7 µM]	5.0	12.2	.
26	CN(c1ccc(O)cc1)c1ccc([N+](=O)[O-])c2nonc12	37.7	-6.4	116.9*	1.9	1.3
27	COC(=O)C[C@H]1CC[C@@H]2NC[C@H](O)COC[C@H]2O1	.	2.6[16.7 µM]	0.3	-0.5	.
28	COC(=O)[C@H]1C[C@@H]1[C@H](NP(=O)(c1ccccc1)c1ccccc1)c1ccccc1	-14.7	3.6	110.7*	-0.3	0.9
29	COC(=O)[C@@H]1C[C@H]1[C@@H](NP(=O)(c1ccccc1)c1ccccc1)c1ccccc1	-16.7	-0.4	-7.9	-1.6	32.0*
30	O=C(O)[C@@H]1C[C@H]1[C@@H](NP(=O)(c1ccccc1)c1ccccc1)c1ccccc1	-22.0	.	13.4	5.0	0.2
31	CC=Cc1ccc2n(c1=O)C[C@H]1[C@H](CO)[C@@H](C(=O)N(C)C)[C@@H]2N1C (mixture of isomers)	.	.	-5.6	35.5	.

Retrieved by compound from above (two):
cpd	structure	Yeast UUG start	miR-122 sensor	Statin myotox sup	Cneo AK release	Glyco luc inh
28	COC(=O)[C@H]1C[C@@H]1[C@H](NP(=O)(c1ccccc1)c1ccccc1)c1ccccc1	-14.7	3.6	110.7*	-0.3	0.9
6	COc1ccccc1C1=NCc2nnc(C)n2-c2ccc(Cl)cc21	.	.	.	.	2.4
